The values that follow come from patent publication US12371675B2, “Process and microorganism for synthesis of adipic acid from carboxylic acids” (THE GOVERNING COUNCIL OF THE UNIVERSITY OF TORONTO, priority 2015, dated 2025).

The nature of this data set: In vitro conversion of adipic acid to 6-aminocaproic acid by MAB_4714c coupled with ATs. The following applies: 20 mM adipic acid, 12 h, AT coupled with MAB_4714c, glutamate as amino-donor.

B1: SAV2583: aminotransferase (AT) from Streptomyces avermitilis (protein)
chain: MSALPQERRVVTAIPGPKSQELQARRTAVVAAGVGSVLPVFTTRAGGGIIEDVDGNRLIDFGSGIAVTSVGASAEAVVRRASAQLQDFTHTCFMVTPYEGYVAVAEALAELTPGDHAKKSALFNSGAEAVENAVKIARAYTKRQAVVVFDHGYHGRTNLTMALTAKNMPYKNGFGPFAPEVYRVPVAYGYRWLTGPENAGAEASAQAIDMINKQIGADNVAAIIIEPVLGEGGFIEPAKGFLPAISKFAKDNGIVFVADEIQSGFCRTGQWFACEDEGIVPDLITTAKGIAGGLPLAAVTGRAEIMDAAHAGGLGGTYGGNPVACAGALGAIETMKELDLNAKAKNIEAVMKARLGAMAEKFDIIGDVRGRGGMIAIELVKDRDTKEPNPEAAGALAKACHQEGLLVLTCGTYGNVLRFLPPLVIGEDLLNEGLDIIEQAFSRI
As for B1, the “In vitro conversion efficiency (%) to 6-aminocaproic acid” value was found to be 19.5 ± 0.4%.

B2: gabT: aminotransferase (AT) from Escherichia coli (protein)
chain: MNSNKELMQRRSQAIPRGVGQIHPIFADRAENCRVWDVEGREYLDFAGGIAVLNTGHLHPKVVAAVEAQLKKLSHTCFQVLAYEPYLELCEIMNQKVPGDFAKKTLLVTTGSEAVENAVKIARAATKRSGTIAFSGAYHGRTHYTLALTGKVNPYSAGMGLMPGHVYRALYPCPLHGISEDDAIASIHRIFKNDAAPEDIAAIVIEPVQGEGGFYASSPAFMQRLRALCDEHGIMLIADEVQSGAGRTGTLFAMEQMGVAPDLTTFAKSIAGGFPLAGVTGRAEVMDAVAPGGLGGTYAGNPIACVAALEVLKVFEQENLLQKANDLGQKLKDGLLAIAEKHPEIGDVRGLGAMIAIELFEDGDHNKPDAKLTAEIVARARDKGLILLSCGPYYNVLRILVPLTIEDAQIRQGLEIISQCFDEAKQ
For B2, the “In vitro conversion efficiency (%) to 6-aminocaproic acid” value is 21.3 ± 0.8%.
